Tested on: monoclonal antibody 24B11 (receptor lactone synthase secreted by hybridoma 24B11, ATCC HB9488)
Assay: Kinetics of lactone-forming cyclization catalyzed by monoclonal receptor lactone synthase 24B11 (phenol release at 271 nm, Lineweaver-Burk)
Type: biochemical, mouse
Conditions: linear competitive inhibition of cyclization of the substrate ligand; inhibitor 0.25 or 0.50 uM; receptor 2 uM; pH 7.0; 25 degrees C

SMILES: CC(=O)NCC1CCCP(=O)(Oc2ccccc2)O1 (stereo not shown)
- Ki: 0.25 µM
